Structures are written as SMILES. This is a selection; strong and weak results do not stand in their true shares. The source made the active and inactive calls. Cut-off read from the data, not from the text of the source: active = activation mostly above about 9.7% (no sharp cut-off); inconclusive = no clear call, values can overlap the other calls; inactive = mostly below about 3.7%.

The test is described as follows: inducers of Vibrio cholerae quorum light production without autoinducers, primary screen, BH1578 luxS cqsA deficient, single point (AID 588436). Conditions: V. cholerae BH1578 lux reporter, luminescence, 6 h; at 18.7 µM; active compounds read high.
Consider `NC(=O)Nc1ccc([As](=O)(O)O)cc1`, for which the activation is inactive: -0.32%.

Values taken from PubChem BioAssay AID588436 (Broad Institute, 2011).
